The values that follow come from US6780853B1, “Neuroactive steroids of the androstane and pregnane series” (priority 1995, dated 2004).

The structures appear in SMILES notation.

This experiment addresses T1, Glucocorticoid Receptors (Rattus norvegicus, UniProt P06536).
T1 construct: from tissue; host or cells: rat brain cytosol
T1 sequence (P06536 1-795): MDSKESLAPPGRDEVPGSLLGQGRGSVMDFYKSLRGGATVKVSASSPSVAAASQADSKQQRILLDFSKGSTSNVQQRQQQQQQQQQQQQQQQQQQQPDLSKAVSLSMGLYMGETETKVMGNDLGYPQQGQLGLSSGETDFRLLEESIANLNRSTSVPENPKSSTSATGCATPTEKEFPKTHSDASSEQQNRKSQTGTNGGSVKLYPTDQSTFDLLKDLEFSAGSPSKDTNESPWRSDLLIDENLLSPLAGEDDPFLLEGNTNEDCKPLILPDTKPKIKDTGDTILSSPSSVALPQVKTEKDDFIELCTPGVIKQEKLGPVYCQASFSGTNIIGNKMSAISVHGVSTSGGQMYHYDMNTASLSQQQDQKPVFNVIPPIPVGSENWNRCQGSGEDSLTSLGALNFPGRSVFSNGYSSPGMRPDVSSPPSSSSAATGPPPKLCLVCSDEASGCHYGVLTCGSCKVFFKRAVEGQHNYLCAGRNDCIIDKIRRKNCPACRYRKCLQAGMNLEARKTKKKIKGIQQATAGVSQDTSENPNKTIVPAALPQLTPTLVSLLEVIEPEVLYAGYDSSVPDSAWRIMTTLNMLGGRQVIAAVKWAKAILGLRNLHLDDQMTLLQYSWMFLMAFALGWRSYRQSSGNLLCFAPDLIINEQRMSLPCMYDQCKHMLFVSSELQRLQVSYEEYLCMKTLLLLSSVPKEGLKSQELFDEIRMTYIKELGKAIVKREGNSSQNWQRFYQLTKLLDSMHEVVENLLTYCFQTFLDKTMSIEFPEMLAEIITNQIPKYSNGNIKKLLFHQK
The experiment in a line: Inhibition of 3H-Dexamethasone Binding to Glucocorticoid Receptors. As to conditions: competitor 10^−6M; 3 nM 3H-dexamethasone.

Take `CC(=O)[C@H]1CC[C@H]2[C@@H]3CC[C@@H]4C[C@H](O)CC[C@]4(C)[C@H]3CC[C@]12C` [5β-pregnan-3α-of-20-one, 5β-pregnan-3α-ol-20 -one]: the “% of Inhibition” value is given as 5.9%.
